This data set deals with Salmonella typhimurium TA1535. Description: Bacterial reverse mutation assay, TA1535. To be noted: TA1535, S9+, 3.0 μg/plate, positive control.

On to `Nc1ccc2cc3ccccc3cc2c1` [2-Aminoanthracene (2-AA), 2-Aminoanthracene], for which the “Mean revertant colony count” value turned out to be 164.

The values are drawn from US11738063B2, “Pharmaceutical composition for preventing or treating neurodegenerative diseases which includes flower extract of Daphne genkwa or fractions thereof as active ingredient” (KOREA RESEARCH INSTITUTE OF BIOSCIENCE AND BIOTECHNOLOGY, priority 2016, dated 2023).
